TDP1 cell CPT: DT40-hTDP1 cell growth loss with CPT; chicken DT40 Tdp1-/-;hTDP1 cells + 20 nM CPT, ATP luminescence, 48 h; Potency, µM (highest dose often 46.2 µM), hits mostly inhibitors; 12% of 420,000 active; further: nearly all actives have a fitted effect of over 55% in size
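Cell growth measured by CellTiter-Glo luminescence after a minimum 48 h, 37 C compound exposure with 20 nM CPT in Tdp1-knockout DT40 cells stably expressing hTDP1, seeded 400/well; qHTS titration format.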
TDP1 block: blocks human tyrosyl-DNA phosphodiesterase 1; Potency, µM (doses to about 130 µM), most hits filed as inhibitors; AID 485290; Q9NUW8; 0.28% of 350,000 active; recombinant TDP1, AlphaScreen DNA substrate cleavage; further: nearly all actives have a fitted effect of over 40% in size
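Enzyme-compound mixtures sat 15 min at room temperature, followed by a 5 min reaction with 15 nM final substrate and 10 min with AlphaScreen beads. Recombinant human Tdp1 was used at 1 nM final.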
uPA surface inh: inhibitors of cell surface uPA generation. Potency, µM (titrated, usually from 38.3 µM), actives largely listed as inhibitors. 0.31% of 330,000 active. AID 540303. cell surface uPA generation assay, qHTS; active means well fitted inhibition curve with a large enough effect; inconclusive means small, poorly fitted or top-dose-only effect; inactive means no such curve, though single readings can be large or run the other way; tested in mouse RAW 264.7 cells; further: nearly all actives have a fitted effect of over 55% in size
TDP1 cell noCPT: qHTS for Inhibitors of human tyrosyl-DNA phosphodiesterase 1 (TDP1): qHTS in cells in absence of CPT; DT40 Tdp1-/- hTDP1 cells, no CPT, ATP luminescence, 48 h; Potency, µM (series often up to 46.2 µM), actives largely listed as inhibitors; 15% of 420,000 active; further: nearly all actives have a fitted effect of over 55% in size
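Cells were dispensed at 400 per well, compounds added by pin tool, plates incubated ≥48 hr at 37 °C, then CellTiter-Glo added for 30 min at room temperature before luminescence reading. Line: DT40 Tdp1-/- complemented with hTDP1; camptothecin omitted.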
miR-21 reporter: miR-21 reporter, rising signal; Potency, µM (top dose mostly 38.3 µM); 340,000 tested, under 10 active; HeLa miR-21 FLuc reporter, luciferase, 48 h; active = well fitted rising curve with a large enough effect; inconclusive = small, poorly fitted or top-dose-only effect; inactive = no such curve, though single readings can be large or run the other way;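 note: miR-21 action dims this reporter so a rising signal means less miR-21 action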
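HeLa miR-21-FLuc reporter line, endogenous miR-21; 2000 cells/well in DMEM/10% FBS; compound titration up to ~40uM final, 48 h, 37 degree Celsius; luciferase detection reagent, 15 min lysis, CCD luminescence.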
Large screens that a line does not name were inactive. Shown are actives, neighbours in structure and some others; about 16% of the full set was active somewhere. Unless noted, the call rests on the fitted dose curve; in most records, active means well fitted curve in the direction sought with a large enough effect; inconclusive means small, poorly fitted or top-dose-only effect, or another doubt; inactive means no such curve, though single readings can be large; an effect the other way counts as inactive or inconclusive.

CCOC(=O)c1c(NC(=O)c2nn(CC)cc2Br)sc2c1CCCCC2	TDP1 cell CPT 18µM, TDP1 cell noCPT inconclusive
CCOC(=O)c1c(NC(=O)c2nn(CC)cc2Br)sc(C)c1C	TDP1 cell CPT 16µM, TDP1 cell noCPT inconclusive
CCOC(=O)c1nn(-c2ccccc2)c(C#N)c1N	none
OCc1cccc(-c2csc(C(O)c3ccco3)n2)c1 (centres undefined)	TDP1 cell CPT inconclusive (no result: TDP1 block, uPA surface inh, miR-21 reporter)
COc1cccc(/C=C2\SC(=S)N(CC3CCCO3)C2=O)c1 (centres undefined)	none
O=c1c(-c2ccc3c(c2)OCCO3)coc2cc(OC3OC(CO)C(O)C(O)C3O)ccc12 (centres undefined)	none
Cc1ccc(C)c(OCC(O)CN2C(C)CCCC2C)c1 (centres undefined)	TDP1 cell CPT 23µM, TDP1 cell noCPT inconclusive
Cc1ccc(C)c(OCC(O)CN2CCC(Cc3ccccc3)CC2)c1 (centres undefined)	TDP1 cell CPT 21µM, TDP1 cell noCPT inconclusive
Cc1ccc(C(=O)NCc2cccs2)cc1S(=O)(=O)N1CCCCC1	none
Cn1c(O)c(N=NC(=S)Nc2ccccc2F)c2cc(S(=O)(=O)N3CCOCC3)ccc21	TDP1 cell CPT 5.2µM, TDP1 cell noCPT 5.8µM
C=CCn1c(O)c(N=NC(=S)Nc2ccccc2C)c2cc(S(=O)(=O)N3CCOCC3)ccc21	TDP1 cell CPT 3.3µM, TDP1 cell noCPT 0.73µM
Cc1ccc(NC(=S)N=Nc2c(O)n(C)c3ccc(S(=O)(=O)N4CCOCC4)cc23)cc1C	TDP1 cell CPT 2.1µM, TDP1 cell noCPT 3.7µM
Cc1cc(=O)n(C)c2ccc(S(=O)(=O)N3CCOCC3)cc12	none (no result: TDP1 block)
Cn1c(=O)c2cc(S(=O)(=O)N3CCOCC3)ccc2n(C)c1=O	none
Cc1cccc(NC(=S)N=Nc2c(O)n(CN3CCOCC3)c3ccccc23)c1C	TDP1 cell CPT 5.8µM, uPA surface inh inconclusive, TDP1 cell noCPT 5.8µM, miR-21 reporter inconclusive
COC(=O)CC1=C(C(=O)OC)C(c2cc(OC)c(OC)cc2OC)C(C#N)=C(N)O1 (centres undefined)	none (no result: uPA surface inh)
CCOc1ccc(CCNC(=O)C2=C(C)C(=O)OC23CCC(C)CC3)cc1 (centres undefined)	none
O=C1/C(=C/c2ccccc2)N=C(N2CCOCC2)N1c1cccc(Cl)c1	TDP1 cell CPT inconclusive, TDP1 cell noCPT inconclusive
OCCN1CCN(c2ncnc3sc4c(c23)CCCC4)CC1	TDP1 cell CPT inconclusive, TDP1 cell noCPT inconclusive (no result: TDP1 block)
Oc1ccc(N2CCN(c3ncnc4sc5c(c34)CCC5)CC2)cc1	TDP1 cell CPT 23µM, TDP1 cell noCPT 13µM
O=C(Cn1cnc2ccccc2c1=O)c1ccc(OC(F)F)cc1	none (no result: TDP1 block)
CCOC(CN=c1nc(N(C)C)ss1)OCC	TDP1 cell CPT 0.58µM, TDP1 cell noCPT 0.73µM (no result: TDP1 block, miR-21 reporter)
Clc1ccc(-c2cn(-c3nc4ccccc4s3)nn2)cc1	none (no result: TDP1 block, uPA surface inh, miR-21 reporter)
COC(=O)c1cn(-c2nc3ccccc3s2)nn1	TDP1 cell CPT inconclusive, TDP1 cell noCPT 16µM (no result: TDP1 block, uPA surface inh, miR-21 reporter)
CCn1c(SCc2nc(-c3ccccc3)no2)nc2ccccc21	TDP1 cell CPT inconclusive, TDP1 cell noCPT inconclusive
CC(C)c1ccc(NC(=O)c2ccc3oc(=O)c(S(=O)(=O)c4ccc(F)cc4)cc3c2)cc1	TDP1 cell CPT inconclusive, TDP1 cell noCPT 7.3µM (no result: uPA surface inh)
Cc1cccc(NC(=O)c2ccc3oc(=O)c(S(=O)(=O)c4ccc(F)cc4)cc3c2)c1C	TDP1 cell noCPT inconclusive (no result: uPA surface inh)
COc1cccc(OCCNC(=O)CSc2ccc(C(F)(F)F)cc2[N+](=O)[O-])c1	TDP1 cell CPT 15µM, TDP1 cell noCPT 15µM
Cc1ccccc1OCCNC(=O)CSc1ccc(C(F)(F)F)cc1[N+](=O)[O-]	TDP1 cell noCPT inconclusive
CCOc1ccc(CNc2cc(C)nc3nc(-c4cccc(C)c4)nn23)cc1OC	TDP1 cell CPT inconclusive, TDP1 cell noCPT 18µM (no result: uPA surface inh)
CCOc1ccc(CCNC(=O)CCc2c(C)nc3ncnn3c2C)cc1OCC	none
Cc1ccc(CNc2cc(C)nc3nc(-c4cccc(C)c4)nn23)cc1	none (no result: TDP1 cell CPT, uPA surface inh, TDP1 cell noCPT)
CCOc1ccc(CCNc2cc(C)nc3ncnn23)cc1OCC	TDP1 cell CPT 21µM, TDP1 cell noCPT 15µM
COc1ccc(CCNc2c(C)c(C)nc3ncnn23)cc1	TDP1 cell CPT 2.3µM, TDP1 cell noCPT 2.6µM (no result: uPA surface inh)
CCc1c(C)nc2ncnn2c1NCCc1ccc(OC)c(OC)c1	TDP1 cell CPT 15µM, TDP1 cell noCPT 13µM (no result: uPA surface inh)
COc1ccc(CCNC(=O)CCc2c(C)nc3nc(C)nn3c2C)cc1OC	none (no result: uPA surface inh)
CC(C)(CNC(=O)c1cc(-c2ccc(Cl)s2)nc2ccccc12)N1CCOCC1	TDP1 cell CPT inconclusive, TDP1 cell noCPT inconclusive (no result: miR-21 reporter)
O=C1CC(c2ccsc2)c2ccc3ccccc3c2N1 (centres undefined)	TDP1 cell noCPT inconclusive
O=C(Nc1ccccc1F)Nc1ccc([N+](=O)[O-])cc1Cl	TDP1 cell CPT inconclusive, TDP1 cell noCPT inconclusive (no result: TDP1 block)
COCCN1CCN(C(=O)C2CCC(=O)N(Cc3ccc(Cl)cc3)C2)CC1 (centres undefined)	none
CCOc1ccc(C(=S)N2CCCC2)c(OCC)c1	TDP1 cell CPT 21µM, TDP1 cell noCPT inconclusive
CCOc1ccc(C(=S)N2CCCC2)cc1	none
O=C(O)CNc1nc(-c2ccccc2)nc2ccccc12	none
O=C(O)c1ccc(Nc2nc(-c3ccccc3)c3ccccc3n2)cc1	none
CN(C)C(=O)c1ccc(-c2nc(Nc3ccccc3)c3ccccc3n2)cc1	TDP1 cell CPT inconclusive, TDP1 cell noCPT 16µM (no result: TDP1 block, uPA surface inh, miR-21 reporter)
CNC(=O)c1ccc(Nc2nc(-c3ccccc3)nc3ccccc23)cc1	TDP1 cell CPT 16µM, TDP1 cell noCPT 13µM
c1ccc(Nc2nc(-c3ccccc3)nc3ccccc23)cc1	none (no result: TDP1 block)
O=C(O)c1ccc(Nc2nc(-c3ccccc3)nc3ccccc23)cc1	TDP1 cell CPT 23µM, TDP1 cell noCPT 21µM (no result: TDP1 block)
O=C(O)c1ccc(Nc2c3ccccc3nc3ccccc23)cc1	TDP1 cell CPT 1.3µM, TDP1 cell noCPT 2.1µM (no result: TDP1 block)
CC(C)Cc1cc(C(=O)NCc2cccs2)no1	none
Cc1c(C(=O)N2CCCCC2)c(S(=O)(=O)NCCc2ccc(Cl)cc2)c(C)n1C	TDP1 cell CPT inconclusive, TDP1 cell noCPT 21µM
Cc1c(C(=O)N2CCCCC2)c(S(=O)(=O)N(C)Cc2ccccc2)c(C)n1C	none
Cc1c(C(=O)N2CCCCCC2)c(S(=O)(=O)N(Cc2ccccc2)C(C)(C)C)c(C)n1C	TDP1 cell CPT inconclusive, TDP1 cell noCPT 21µM (no result: uPA surface inh)
COC(=O)C1=C(C)OC(N)=C(C#N)C1c1ccc(OC)c(CSc2ccccn2)c1 (centres undefined)	none
Cc1ccc(C(=O)C2CCN(CC(=O)NC3CCCCC3)CC2)cc1	TDP1 cell noCPT inconclusive (no result: uPA surface inh)
COc1ccc(CNC(=O)c2cccc(N3CCCS3(=O)=O)c2)cc1OC	TDP1 cell CPT 10µM, TDP1 cell noCPT 7.3µM (no result: uPA surface inh)
COc1ccc(CNC(=O)c2cccc(N3CCCS3(=O)=O)c2)cc1	none (no result: uPA surface inh)
CC[C@@]1(C(=O)OC)N[C@H](CN(C)C(=O)NC(C)C)[C@@H]2C(=O)N(C)C(=O)[C@@H]21	none (no result: miR-21 reporter)

Source: PubChem
